{"source": "patent US20220211796A1", "about": "“PEPTIDE ANTIBIOTICS AND METHODS OF USE THEREOF” (priority 2019, published 2022)", "key": {"B. subtilis ATCC 6633": {"system": "B. subtilis ATCC 6633", "settings": "Table 5", "experimental": "(§1) The L-peptides identified from five different phage display libraries were catalogued as described previously and selected sequences were synthesized in D-enantiomeric form by SPPS for further investigation in several biological assays.\n(§2) MICs were determined according to a 96-well microdilution protocol outlined by the Clinical and Laboratory Standard Institute (CLSI) guideline with modifications for peptide antibiotics reported by Wiegand et al.^35 Two-fold serial peptide dilutions were performed to go from 2560 μg/ml to 5 μg/ml in0.2% BSA and 0.01% acetic acid buffer in 96-well polypropylene plates (COSTAR, #3879). Dilution of bacterial suspensions (1:200) of different bacterial strains that were grown until 0.5 McFarland standard were prepared to obtain a final inoculum concentration of 8×10^5 CFU/ml in Mueller-Hinton broth."}, "E. coli ATCC 25992": {"system": "E. coli ATCC 25992", "settings": "Table 5", "experimental": "as §1, §2"}, "E. faecalis ATCC 29121": {"system": "E. faecalis ATCC 29121", "settings": "Table 5", "experimental": "as §1, §2"}, "[1]": {"system": "Methicillin-resistant S. aureus (MRSA) ATCC 43300", "settings": "Table 5", "experimental": "as §1, §2"}, "S. aureus ATCC 6538": {"system": "S. aureus ATCC 6538", "settings": "Table 5", "experimental": "as §1, §2"}, "[2]": {"system": "high level vancomycin resistant E. faecium (vanA) ATCC 51559", "settings": "Table 5; high level vancomycin resistant E. faecium ATCC 51559", "experimental": "as §1, §2"}, "[3]": {"system": "low level vancomycin resistant E. faecium (vanB) ATCC 51299", "settings": "Table 5; low level vancomycin resistant E. faecium ATCC 51299", "experimental": "as §1, §2"}}}
{"smiles": "CC[C@H](C)[C@H](NC(=O)CN)C(=O)NCC(=O)N[C@@H](C)C(=O)N[C@H](C(=O)N[C@@H](CC(C)C)C(=O)N[C@@H](CCCCN)C(=O)N[C@H](C(=O)N[C@@H](CC(C)C)C(=O)N[C@H](C(=O)N[C@H](C(=O)NCC(=O)N[C@@H](CC(C)C)C(=O)N1CCC[C@H]1C(=O)N[C@@H](C)C(=O)N[C@@H](CC(C)C)C(=O)N[C@H](C(=O)N[C@@H](CO)C(=O)N[C@@H](Cc1c[nH]c2ccccc12)C(=O)N[C@H](C(=O)N[C@@H](CCCCN)C(=O)N[C@@H](CCCNC(=N)N)C(=O)N[C@@H](CCCCN)C(=O)N[C@@H](CCCNC(=N)N)C(=O)N[C@@H](CCC(N)=O)C(=O)N[C@@H](CCC(N)=O)C(N)=O)[C@@H](C)CC)[C@@H](C)CC)[C@@H](C)O)[C@@H](C)O)C(C)C)C(C)C", "note": "[P2, Melittin, reference compound]", "values": [{"measurement": "MIC B. subtilis", "setting": "B. subtilis ATCC 6633", "result": 2, "unit": "µg/mL"}, {"measurement": "MIC E. coli", "setting": "E. coli ATCC 25992", "result": 32, "unit": "µg/mL"}, {"measurement": "MIC E. faecalis", "setting": "E. faecalis ATCC 29121", "result": 8, "unit": "µg/mL"}, {"measurement": "MIC MRSA", "setting": "[1]", "result": 4, "unit": "µg/mL"}, {"measurement": "MIC S. aureus", "setting": "S. aureus ATCC 6538", "result": 2, "unit": "µg/mL"}, {"measurement": "MIC VRE (vanA)", "setting": "[2]", "result": 32, "unit": "µg/mL"}, {"measurement": "MIC VRE (vanB)", "setting": "[3]", "result": 32, "unit": "µg/mL"}]}
